2 compounds from ChEMBL document CHEMBL1138783, “Subtype selective substrates for histone deacetylases” (J Med Chem, 2004) can be followed below.

For the assay, the system named is HDAC6/HDAC1 (Homo sapiens). The experiment in a line: Selectivity ratio for Histone deacetylase 6 versus Histone deacetylase 1.

For `CC1(C)NC(=O)[C@H](CCCCCC(=O)NO)NC(=O)[C@H]2CCCN2C(=O)[C@H](Cc2ccccc2)NC1=O`, the Selectivity was found to be 86. As for `CN(C)c1ccc(C(=O)NCCCCCCC(=O)NO)cc1`, the Selectivity amounted to 0.35.
